According to US20260166045A1, “COMBINATION THERAPY COMPRISING GSPT1-DIRECTED MOLECULAR GLUE DEGRADERS AND PI3K/AKT/mTOR PATHWAY INHIBITORS” (Monte Rosa Therapeutics, Inc., priority 2022, published 2026):

What was measured:
Assay in all cases: CTG viability, 11x11 concentration matrix, Loewe synergy (NSCLC)
Settings in all cases: inhibitor combined with compound 1-1 (0.1 nM to 3.16 uM), 11x11 matrix, 72 hours
NCI-H1770 cell line = system: NCI-H1770 cell line
NCI-H2106 cell line = system: NCI-H2106 cell line
ABC-1 cell line = system: ABC-1 cell line
NCI-H441 cell line = system: NCI-H441 cell line
EBC-1 cell line = system: EBC-1 cell line
NCI-H2023 cell line = system: NCI-H2023 cell line

SMILES | Mean Loewe synergy score, NCI-H1770 (NCI-H1770 cell line) | Mean Loewe synergy score, NCI-H2106 (NCI-H2106 cell line) | Mean Loewe synergy score, ABC1 (ABC-1 cell line) | Mean Loewe synergy score, NCI-H441 (NCI-H441 cell line) | Mean Loewe synergy score, EBC1 (EBC-1 cell line) | Mean Loewe synergy score, NCI-H2023 (NCI-H2023 cell line)
Cc1nc(NC(=O)N2CCC[C@H]2C(N)=O)sc1-c1ccnc(C(C)(C)C(F)(F)F)c1 [Alpelisib, (2S)-1-N-[4-methyl-5-[2-(1,1,1-trifluoro-2-methylpropan-2-yl)pyridin-4-yl]-1,3-thiazol-2-yl]pyrrolidine-1,2-dicarboxamide] | 1.7 | −0.51 | 4.95 | 5.23 | 0.38 | 1.1
NC1(C(=O)N[C@@H](CCO)c2ccc(Cl)cc2)CCN(c2ncnc3[nH]ccc23)CC1 [Capivasertib, 4-amino-N-[(1S)-1-(4-chlorophenyl)-3-hydroxypropyl]-1-(7H-pyrrolo[2,3-d]pyrimidin-4-yl)piperidine-4-carboxamide] | 3.31 | 3.77 | 5.4 | 4.4 | 4.03 | 3.86
Nc1cc(C(F)(F)F)c(-c2cc(N3CCOCC3)nc(N3CCOCC3)n2)cn1 [buparlisib, 5-(2,6-dimorpholin-4-ylpyrimidin-4-yl)-4-(trifluoromethyl)pyridin-2-amine] | 0.21 | −0.48 | 1.14 | 0.24 | 3.27 | 2.5
